Our source for the CC50 values is ChEMBL document CHEMBL4043131, “New prodrugs of two pyrimidine acyclic nucleoside phosphonates: Synthesis and antiviral activity” (Bioorg Med Chem, 2017).

Molecules are shown by their SMILES.

The data set concerns HEL. As to the kind of experiment: Cytotoxicity against HEL cells assessed as reduction in cell growth after 3 days by coulter counter method. Format: cell-based. The following applies: human, 72 h. The method, boiled down: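 HEL cells were seeded at 5 × 10³ cells/well and grown for 24 h, then given medium containing graded compound concentrations. After 3 days at 37 °C, cells were counted by Coulter counter.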

For `CCCCCCCCCCCCCCCCNC(=O)[C@@H](N)Cc1ccc(OP(=O)(COCCn2cnc(N)nc2=O)Oc2ccc(C[C@H](N)C(=O)NCCCCCCCCCCCCCCCC)cc2)cc1`, the CC50 worked out at 27.1 µM.
